Details: human, in vivo

cases of Edema (%): 26.7%
SMILES: Cc1ccc(-c2cc(C(F)(F)F)nn2-c2ccc(S(N)(=O)=O)cc2)cc1 [celecoxib]
